Measured values taken from patent publication US20150011751A1, “NOVEL TRIAZINE DERIVATIVE” (CARNA BIOSCIENCES, INC., priority 2012, published 2015).

Tested on: intracellular BTK (pY223) in Ramos cells
Settings: test compound 0.3 μM, 1 hour, IgM 10 μg/mL 10 minutes

CCn1cc(Nc2nc(N)nc(-c3cccc(N4CCc5cc(C6CC6)cc(F)c5C4=O)c3CO)n2)cn1
BTK phosphorylation inhibitory activity: *** (70% or more)
